Arr AP2 block: blocks beta-arrestin peptide binding to AP2 adaptin. FITC-arrestin peptide / GST-AP2 beads, flow cytometry; AP2 beta2 appendage carries R879A mutation. inhibition, % at 10 µM. 340,000 compounds, 0.31% hits;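 active = inhibition above a set limit, near 3 SD of compounds lacking own fluorescence, cut at about 54% in these data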
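Measured by: flow cytometry, FL1 (488/535 nm); Material: AP2 appendage R879A on GSH beads; Evaluation: percent response; Timing: pre-incubation 12 min, peptide binding 1 h, room temperature; Also added: 50 nM FITC-arrestin peptide; Medium: PBS with 0.05% Tween 20 and 0.1% BSA.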
Rce1 inhib: yeast Ras-converting enzyme inhibition. Q03530. yeast membranes, quenched prenylated peptide cleavage fluorescence. calls only. 290,000 compounds, 0.27% hits. AID 2563;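 active = fall in fluorescence gain of 50% or more versus controls, with final raw signal at or below 3038400; inconclusive = same 50% fall but final raw signal above 3038400; inactive = fall in fluorescence gain under 50%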
Tb MetRS inh: Trypanosoma brucei MetRS inhibition; purified T. brucei MetRS, ATP depletion, Kinase-Glo luminescence; inhibition, % at 11.9 µM; 360,000 compounds, 0.4% hits; AID 624268;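 active = inhibition above a per-plate cutoff of the control wells' mean inhibition plus 3 SD, cut at about 5.5% in these data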
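Dosing: 11.9 µM compound single dose, 0.9% DMSO; Assay system: purified T. brucei MetRS enzyme; Measured by: Kinase-Glo luciferase luminescence reporting remaining unconsumed ATP; Schedule: 15 min plus 2 h at 25 °C.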
UUG fidelity: modulators of start codon recognition fidelity in yeast. S. cerevisiae UUG-firefly luciferase reporter, luminescence/redox ratio. activity score, % at 18.7 µM. 0.13% of 350,000 active. AID 602363;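 active = replicate mean at a twofold rise or more, about +100% in these data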;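 also: firefly luciferase made from a UUG start codon reports start codon fidelity; reporter light over untreated wells divided by growth signal over untreated wells; some hits fall short of that in this replicate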
Pemphigus Ab inh: human desmoglein-3 autoantibody binding inhibition; DSG3-coupled beads, scFv-anti-DSG3-GFP binding, flow cytometry; hits give low values; binding (percent of control), % at 10 µM; 310,000 compounds, 0.48% hits;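 active = binding more than 3 SD below its plate's average and above zero; inconclusive = below that plate limit but binding exactly zero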;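 note: hits lower antibody fragment binding to DSG3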
A number is an active result; – = inactive; ? = inconclusive; · = not tested or not shown; + = active, no number. Rows were chosen to be rich in hits. Some 1.2% of all compounds tested hit in one or more screens of this group.

SMILES	Arr AP2 block	Rce1 inhib	Tb MetRS inh	UUG fidelity	Pemphigus Ab inh
Nc1c(C(=O)NCc2ccccc2)sc2nc(N3CCOCC3)c3c(c12)CCCC3	–	+	–	–	·
CC(C)(C)NC(=S)NCc1ccc2c(c1)OCO2	–	–	–	·	–
CN(C)CC(C)(C)CNC(=S)NCc1ccc2c(c1)OCO2	–	+	–	·	·
Cc1cccc(S(=O)(=O)N2C[C@@H]3[C@H](c4ccccc42)[C@H](CO)N3C(=O)C2CC2)c1	·	·	·	–	·
CCC(=O)N(Cc1ccco1)c1nc(-c2ccc(OC)cc2)cs1	–	–	–	–	–
CCC(=O)N(CC)c1nc(-c2ccc(OC)cc2)cs1	–	–	–	–	73
CNC(=O)C[C@@H]1CC[C@@H]2[C@H](COc3ccc(NC(=O)c4cccc(OC)c4)cc3C(=O)N2C)O1	·	·	·	–	·
O=c1[nH]c2cc([N+](=O)[O-])ccc2c2ccc([N+](=O)[O-])cc12	–	·	–	·	–
Nc1ccc2c(c1)[nH]c(=O)c1cc(N)ccc12	·	·	–	–	75
Nc1nc(SCc2nnc(SCC(=O)O)n2-c2ccccc2)nc2sc3c(c12)CCCC3	–	–	–	–	-17
CC(NC(=O)CSc1nc2sc3c(c2c(=O)n1-c1ccccc1)CCCC3)c1ccccc1 (stereo not given)	–	–	–	–	79
C[C@H](CO)N1C[C@H](C)[C@H](CN(C)C(=O)CCCN(C)C)OCCCC[C@H](C)Oc2ccc(NC(=O)Nc3cccc4ccccc34)cc2C1=O	·	·	·	–	·
C[C@@H]1CN([C@@H](C)CO)C(=O)c2cccc(NC(=O)C3CCOCC3)c2O[C@@H]1CN(C)Cc1ccc2c(c1)OCO2	·	·	·	–	·
NC(=O)c1ccsc1NC(=O)COC(=O)c1ccc(Cl)nc1	–	–	–	–	59
NC(=O)N1N=C2/C(=C/c3ccccc3)CCCC2C1c1ccccc1 (stereo not given)	–	+	–	–	?
COc1ccc(CN(C)C[C@H]2OCCCC[C@@H](C)Oc3ccc(NC(=O)NC4CCCCC4)cc3C(=O)N([C@H](C)CO)C[C@H]2C)cc1	·	·	·	–	·
CCn1c(SCC(=O)Nc2nc3ccccc3s2)nnc1-c1ccc(Br)cc1	–	–	–	–	-18
Cn1c(SCC(=O)Nc2nc3ccccc3s2)nnc1-c1ccccc1	–	·	–	–	–
C[C@@H]1CN([C@@H](C)CO)C(=O)c2cccc(NS(=O)(=O)c3cccs3)c2O[C@@H]1CN(C)Cc1ccc2c(c1)OCO2	·	·	·	–	·
CC(C)(C)SCCNC(=O)CN(c1ccccc1)S(=O)(=O)c1ccc(F)cc1	–	–	–	–	5.2
CC(C)(C)SCCNC(=O)CN(c1ccc(F)cc1)S(C)(=O)=O	–	·	–	–	–
O=C(Nc1ccc(S(=O)(=O)NCc2ccco2)cc1)c1ccncc1	–	–	–	–	–
Cc1ccc(NC(=O)c2ccc(S(=O)(=O)NCc3ccco3)cc2)cc1	–	–	–	–	-4.6
C[C@@H]1CCCCO[C@@H](CN(C)S(=O)(=O)c2cn(C)cn2)[C@@H](C)CN([C@H](C)CO)C(=O)c2cc(NC(=O)CCC(F)(F)F)ccc2O1	·	·	·	–	·
CO[C@@H]1CN(C)C(=O)c2cc(NC(=O)c3cnccn3)ccc2OC[C@H](C)N(CCc2ccccc2)C[C@H]1C	·	·	·	–	·
SMILES	Arr AP2 block	Rce1 inhib	Tb MetRS inh	UUG fidelity	Pemphigus Ab inh
CCC(=O)Nc1ccc2c(c1)C(=O)N(C)C[C@H](OC)[C@H](C)CN(CC1CC1)[C@H](C)CO2	·	·	·	–	·
CCCc1cc(=O)[nH]c(SCC(=O)N2CCN(S(=O)(=O)c3ccc4ccccc4c3)CC2)n1	–	–	–	·	-2.3
CCCc1cc(=O)[nH]c(SCC(=O)N2CCN(S(=O)(=O)c3ccccc3)CC2)n1	–	–	–	·	–
O=C(COn1nnc2ccc(Cl)cc21)NC12CC3CC(CC(C3)C1)C2	–	–	–	·	86
O=C(COn1nnc2ccc(Cl)cc21)Nc1ccc(F)cc1	–	–	–	–	–
CCCOc1ccc(-c2nnn(CC(=O)N3CCCCC3)n2)cc1	–	–	–	–	88
C[C@@H]1CCCCO[C@H](CN(C)C(=O)Nc2ccccc2)[C@H](C)CN([C@@H](C)CO)C(=O)c2cc(NC(=O)c3ccccc3)ccc2O1	·	·	·	–	·
CC(=O)N=c1sc(S(N)(=O)=O)nn1C	–	–	–	–	-12
CC(=O)c1ccc(-c2ccc(C(=O)N3CCC(C(N)=O)CC3)o2)cc1	–	+	–	–	–
CC(=O)c1ccc(-c2ccc(C(=O)N3CCN(c4ccc(F)cc4)CC3)o2)cc1	–	–	–	–	–
CCOC(=O)C(=O)Cc1cccnn1	–	·	–	·	47
